Measurements: ChEMBL document CHEMBL1687890, “Design, synthesis, pharmacological evaluation, and structure-activity study of novel endomorphin analogues with multiple structural modifications” (J Med Chem, 2011)

Amino acid sequences for entries named in this document (tags omitted).
UniProt P33535, whole entry: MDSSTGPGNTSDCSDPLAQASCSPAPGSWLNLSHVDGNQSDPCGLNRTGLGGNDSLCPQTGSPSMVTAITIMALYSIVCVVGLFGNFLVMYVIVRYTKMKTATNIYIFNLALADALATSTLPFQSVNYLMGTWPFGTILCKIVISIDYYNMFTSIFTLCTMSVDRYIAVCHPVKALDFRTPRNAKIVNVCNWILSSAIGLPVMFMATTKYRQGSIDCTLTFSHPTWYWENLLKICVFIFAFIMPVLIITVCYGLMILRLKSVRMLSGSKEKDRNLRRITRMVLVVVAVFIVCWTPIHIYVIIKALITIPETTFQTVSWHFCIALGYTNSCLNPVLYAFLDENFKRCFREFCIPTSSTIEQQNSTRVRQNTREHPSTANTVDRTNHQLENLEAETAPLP

Molecular target: Mu-type opioid receptor (Rattus norvegicus, UniProt P33535)
Experiment: Agonist activity at mu opioid receptor in rat brain membrane by [35S]GTPgammaS binding assay
Type: functional, cell membranes

Question: `C[C@@H](NC(=O)[C@@H](N)Cc1ccc(O)cc1)C(=O)NCC(=O)N(C)[C@@H](Cc1ccccc1)C(=O)NCCO` [DAMGO] was tested. Which EC50 did it give?
Answer: The EC50 was 214 nM.
